Molecular target: T1, 5-hydroxytryptamine receptor 2C (Rattus norvegicus, UniProt P08909)
T1 sequence (P08909 whole entry): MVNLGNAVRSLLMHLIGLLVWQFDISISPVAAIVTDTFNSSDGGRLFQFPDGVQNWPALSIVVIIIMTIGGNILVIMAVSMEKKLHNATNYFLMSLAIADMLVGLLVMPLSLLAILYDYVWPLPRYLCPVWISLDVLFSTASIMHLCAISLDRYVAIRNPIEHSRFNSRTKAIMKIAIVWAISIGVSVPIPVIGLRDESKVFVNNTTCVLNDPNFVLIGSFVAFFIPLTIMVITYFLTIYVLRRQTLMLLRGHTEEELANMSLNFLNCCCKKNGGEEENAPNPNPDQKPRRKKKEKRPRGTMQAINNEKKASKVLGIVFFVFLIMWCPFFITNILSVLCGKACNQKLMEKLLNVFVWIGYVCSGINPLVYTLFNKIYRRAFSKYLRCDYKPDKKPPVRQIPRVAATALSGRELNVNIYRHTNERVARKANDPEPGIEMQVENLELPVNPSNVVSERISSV
Assay: Displacement of [3H]mesulergine from A9 cells stably expressing rat 5-hydroxytryptamine 2C receptor
Assay type: cell-based

Which Ki does the source give for `COc1cc(CC(C)N)c(OC)cc1Br` (stereo unspecified) [BROLAMFETAMINE] here?
Its Ki is 64 nM.

Reference: ChEMBL document CHEMBL1133613, “1-[4-(3-Phenylalkyl)phenyl]-2-aminopropanes as 5-HT(2A) partial agonists” (J Med Chem, 2000)
